Test results reported in patent US20230111925A1, “FIBROTIC DISEASE MECHANISM AND THERAPEUTIC DRUG THEREFOR” (GUANGZHOU WOMEN AND CHILDREN'S MEDICAL CENTER, priority 2020, published 2023).

Test system: RRV-induced biliary atresia

## OCCN(CCO)c1nc(N2CCCCC2)c2nc(N(CCO)CCO)nc(N3CCCCC3)c2n1 [Dipyridamole]
50 μg Dip per 2 g weight i.p.
  jaundice: without jaundice
50 μg Dip per 2 g weight i.p. before RRV and on days 3, 6, 9, end day 12
  weights of mice: increase
